Measured values taken from patent US20190224189A1 (priority 2016, published 2019).

Amino acid sequences for entries named in this document (tags omitted). Chains listed by the source or under a name are the forms on record and can include a tag or linker. Residues count along the entry.
UniProt P00533, 668-1210 limits assumed: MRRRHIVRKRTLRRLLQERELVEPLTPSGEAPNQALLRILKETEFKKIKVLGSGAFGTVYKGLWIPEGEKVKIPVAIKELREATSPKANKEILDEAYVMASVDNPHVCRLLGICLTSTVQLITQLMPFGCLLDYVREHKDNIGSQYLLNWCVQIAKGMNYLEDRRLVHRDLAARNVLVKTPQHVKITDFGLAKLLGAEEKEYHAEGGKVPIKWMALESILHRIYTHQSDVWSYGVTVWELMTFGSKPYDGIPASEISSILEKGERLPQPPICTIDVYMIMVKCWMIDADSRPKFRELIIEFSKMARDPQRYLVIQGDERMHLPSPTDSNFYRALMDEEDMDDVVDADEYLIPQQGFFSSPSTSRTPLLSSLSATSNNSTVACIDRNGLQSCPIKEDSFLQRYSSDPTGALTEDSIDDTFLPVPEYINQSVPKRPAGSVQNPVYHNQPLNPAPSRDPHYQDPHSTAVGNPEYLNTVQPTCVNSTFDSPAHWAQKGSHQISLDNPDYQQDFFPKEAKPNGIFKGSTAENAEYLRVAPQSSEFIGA
UniProt P00533, with tags, fused parts or gaps DEL746-750/T790M: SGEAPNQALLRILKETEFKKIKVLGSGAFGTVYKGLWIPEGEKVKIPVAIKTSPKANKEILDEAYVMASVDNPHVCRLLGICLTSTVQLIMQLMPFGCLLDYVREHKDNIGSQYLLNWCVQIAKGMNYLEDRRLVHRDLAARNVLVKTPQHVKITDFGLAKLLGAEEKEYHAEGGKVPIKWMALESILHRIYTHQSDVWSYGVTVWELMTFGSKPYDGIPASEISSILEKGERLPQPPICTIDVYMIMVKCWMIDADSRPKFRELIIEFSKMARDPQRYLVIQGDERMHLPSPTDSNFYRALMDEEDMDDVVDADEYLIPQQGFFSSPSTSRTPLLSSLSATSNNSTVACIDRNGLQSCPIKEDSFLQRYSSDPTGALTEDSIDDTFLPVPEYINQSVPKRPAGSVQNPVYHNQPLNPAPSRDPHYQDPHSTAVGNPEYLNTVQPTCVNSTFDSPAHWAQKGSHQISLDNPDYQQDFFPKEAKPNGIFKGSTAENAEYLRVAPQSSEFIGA
UniProt P00533, 695-1210 L858R: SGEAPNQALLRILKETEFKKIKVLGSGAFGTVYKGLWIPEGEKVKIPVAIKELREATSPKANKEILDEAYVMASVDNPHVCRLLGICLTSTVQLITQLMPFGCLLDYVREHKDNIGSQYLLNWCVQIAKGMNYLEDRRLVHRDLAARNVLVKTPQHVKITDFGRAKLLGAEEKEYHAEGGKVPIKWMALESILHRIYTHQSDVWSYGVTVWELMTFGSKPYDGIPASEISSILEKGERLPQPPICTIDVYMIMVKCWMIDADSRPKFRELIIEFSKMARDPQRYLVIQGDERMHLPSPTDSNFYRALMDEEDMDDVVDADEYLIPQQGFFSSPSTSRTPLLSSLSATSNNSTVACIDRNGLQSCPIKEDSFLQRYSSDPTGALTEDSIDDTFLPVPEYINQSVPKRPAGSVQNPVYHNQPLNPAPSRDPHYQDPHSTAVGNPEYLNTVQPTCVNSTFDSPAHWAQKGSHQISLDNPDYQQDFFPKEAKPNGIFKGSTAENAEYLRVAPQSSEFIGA
UniProt P00533, 695-1210 T790M: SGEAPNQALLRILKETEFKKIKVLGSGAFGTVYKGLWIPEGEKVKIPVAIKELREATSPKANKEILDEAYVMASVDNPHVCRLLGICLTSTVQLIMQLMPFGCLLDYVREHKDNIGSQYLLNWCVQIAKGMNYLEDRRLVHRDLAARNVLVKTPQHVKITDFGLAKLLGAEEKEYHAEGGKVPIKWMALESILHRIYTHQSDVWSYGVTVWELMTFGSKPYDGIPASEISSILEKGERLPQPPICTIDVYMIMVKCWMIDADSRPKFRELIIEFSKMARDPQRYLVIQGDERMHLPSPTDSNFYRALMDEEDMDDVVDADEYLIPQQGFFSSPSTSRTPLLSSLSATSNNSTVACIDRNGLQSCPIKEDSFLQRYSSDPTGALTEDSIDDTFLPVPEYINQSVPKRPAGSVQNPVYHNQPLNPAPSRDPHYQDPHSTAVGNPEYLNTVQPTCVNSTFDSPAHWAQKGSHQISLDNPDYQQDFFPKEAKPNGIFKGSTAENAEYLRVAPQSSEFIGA
UniProt P00533, with tags, fused parts or gaps DEL746-750: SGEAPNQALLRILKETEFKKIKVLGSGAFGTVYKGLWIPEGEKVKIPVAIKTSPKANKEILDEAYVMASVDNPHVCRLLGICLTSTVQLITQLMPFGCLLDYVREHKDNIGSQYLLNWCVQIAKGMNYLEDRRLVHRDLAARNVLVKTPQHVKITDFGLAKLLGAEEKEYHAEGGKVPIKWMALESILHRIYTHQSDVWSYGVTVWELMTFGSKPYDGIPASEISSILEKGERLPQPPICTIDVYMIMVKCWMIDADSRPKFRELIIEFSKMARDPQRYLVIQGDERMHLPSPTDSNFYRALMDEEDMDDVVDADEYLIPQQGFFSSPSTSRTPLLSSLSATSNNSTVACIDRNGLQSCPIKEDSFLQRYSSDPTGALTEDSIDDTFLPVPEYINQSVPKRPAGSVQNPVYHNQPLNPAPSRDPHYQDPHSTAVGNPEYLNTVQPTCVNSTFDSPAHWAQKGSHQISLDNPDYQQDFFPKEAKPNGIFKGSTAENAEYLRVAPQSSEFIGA
UniProt P00533, with tags, fused parts or gaps INS772GNP: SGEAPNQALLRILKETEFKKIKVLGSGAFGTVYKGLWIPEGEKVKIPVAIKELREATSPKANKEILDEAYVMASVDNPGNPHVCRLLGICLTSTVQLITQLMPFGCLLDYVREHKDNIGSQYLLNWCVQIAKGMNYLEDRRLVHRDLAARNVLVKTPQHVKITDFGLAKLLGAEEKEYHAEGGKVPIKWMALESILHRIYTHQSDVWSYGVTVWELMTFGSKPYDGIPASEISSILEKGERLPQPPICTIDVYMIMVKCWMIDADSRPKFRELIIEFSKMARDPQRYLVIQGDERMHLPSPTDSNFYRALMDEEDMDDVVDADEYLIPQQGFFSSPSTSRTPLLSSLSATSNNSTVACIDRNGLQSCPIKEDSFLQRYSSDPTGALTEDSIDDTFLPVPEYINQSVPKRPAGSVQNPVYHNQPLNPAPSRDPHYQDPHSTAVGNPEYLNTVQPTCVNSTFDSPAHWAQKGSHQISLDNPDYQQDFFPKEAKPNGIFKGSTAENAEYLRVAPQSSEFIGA
UniProt P00533, 695-1210 T790M/L858R: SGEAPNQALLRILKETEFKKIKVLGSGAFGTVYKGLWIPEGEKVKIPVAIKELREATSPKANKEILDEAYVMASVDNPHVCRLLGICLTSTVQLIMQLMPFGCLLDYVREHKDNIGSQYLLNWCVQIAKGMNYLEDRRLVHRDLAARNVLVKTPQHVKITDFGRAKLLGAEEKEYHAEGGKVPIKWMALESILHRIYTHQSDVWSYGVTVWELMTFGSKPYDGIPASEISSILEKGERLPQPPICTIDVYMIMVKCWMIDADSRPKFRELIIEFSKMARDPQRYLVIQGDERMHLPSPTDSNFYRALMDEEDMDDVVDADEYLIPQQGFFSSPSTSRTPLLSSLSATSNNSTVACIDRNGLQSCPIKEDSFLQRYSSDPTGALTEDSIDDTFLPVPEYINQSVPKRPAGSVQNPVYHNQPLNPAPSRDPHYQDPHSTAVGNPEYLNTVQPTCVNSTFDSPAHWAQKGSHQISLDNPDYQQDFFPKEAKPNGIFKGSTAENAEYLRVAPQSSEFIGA

Assays:
Assay in all cases: biochemical
EGFR WT [1] = molecular target: T1, EGFR WT (Homo sapiens, UniProt P00533)
EGFR WT [2] = molecular target: T1, EGFR WT; remark: listed apart in the source
EGFR T790M + Exon19 Del = EGFR T790M + Exon19 Del (Homo sapiens, UniProt P00533, DEL746-750/T790M)
EGFR L858R = EGFR L858R (Homo sapiens, UniProt P00533, L858R)
EGFR T790M = EGFR T790M (Homo sapiens, UniProt P00533, T790M)
EGFR A763_Y764insFHEA = EGFR A763_Y764insFHEA (Homo sapiens, UniProt P00533, INS763FHEA)
EGFR Exon19 Del = EGFR Exon19 Del (Homo sapiens, UniProt P00533, DEL746-750)
EGFR D770_N771insNPG = EGFR D770_N771insNPG (Homo sapiens, UniProt P00533, INS772GNP)
EGFR T790M + L858R = EGFR T790M + L858R (Homo sapiens, UniProt P00533, L858R/T790M)

IC50 (EGFR WT [1]): 0.0423 µM | IC50 (EGFR WT [2]): 0.000545 µM | IC50 (EGFR T790M + Exon19 Del): 1.53 µM | IC50 (EGFR L858R): 0.0251 µM | IC50 (EGFR T790M): 0.135 µM | IC50 (EGFR A763_Y764insFHEA): 0.000148 µM | IC50 (EGFR Exon19 Del): 0.126 µM | IC50 (EGFR D770_N771insNPG): 0.000435 µM | IC50 (EGFR T790M + L858R): 0.242 µM
SMILES: CCOc1cc2ncc(C#N)c(Nc3ccc(OCc4ccccn4)c(Cl)c3)c2cc1NC(=O)/C=C/[C@H]1CCCN1C [Compound A, (E)-N-[4-[[3-chloro-4-(2-pyridylmethoxy)phenyl]amino]-3-cyano-7-ethoxy-6-quinolyl]-3-[(2R)-1-methylpyrrolidin-2-yl]prop-2-enamide]

Read-outs that look alike come from different tables or passages of the source.
